In the NIST ThermoML archive (doi:10.1016/j.jct.2009.07.014):

Experiment: excess molar enthalpy (molar enthalpy of mixing); xn = mol fraction of the nth substance listed
Settings: 101.3 kPa, Liquid, Flow calorimetry

CCCCOCCCC [dibutyl ether] + CCCCCCC
excess molar enthalpy [kcal/mol]
Settings | 298.15 K | 313.15 K
x1 = 0.0496 | – | 0.00652
x1 = 0.0497 | 0.00636 | –
x1 = 0.1001 | – | 0.0122
x1 = 0.1002 | 0.0121 | –
x1 = 0.1496 | – | 0.0163
x1 = 0.1498 | 0.0165 | –
x1 = 0.1998 | – | 0.0201
x1 = 0.2 | 0.0203 | –
x1 = 0.2499 | – | 0.0233
x1 = 0.2501 | 0.0234 | –
x1 = 0.2998 | – | 0.0257
x1 = 0.3 | 0.0258 | –
x1 = 0.3503 | – | 0.0275
x1 = 0.3506 | 0.0277 | –
x1 = 0.3998 | – | 0.0286
x1 = 0.4 | 0.0288 | –
x1 = 0.4499 | – | 0.0292
x1 = 0.4501 | 0.0294 | –
x1 = 0.4998 | – | 0.0291
x1 = 0.5 | 0.0293 | –
x1 = 0.5494 | – | 0.0285
x1 = 0.5496 | 0.029 | –
x1 = 0.5997 | – | 0.0275
x1 = 0.5998 | 0.0279 | –
x1 = 0.6496 | – | 0.0258
x1 = 0.6498 | 0.0262 | –
x1 = 0.6993 | – | 0.0236
x1 = 0.6994 | 0.024 | –
x1 = 0.7496 | – | 0.0208
x1 = 0.7498 | 0.0212 | –
x1 = 0.7996 | – | 0.0175
x1 = 0.7998 | 0.0179 | –
x1 = 0.8503 | – | 0.0137
x1 = 0.8505 | 0.0138 | –
x1 = 0.8995 | – | 0.00954
x1 = 0.8996 | 0.00951 | –
x1 = 0.9494 | 0.00454 | 0.00492

CCCCOCCCC [dibutyl ether] + CCCCO
excess molar enthalpy [kcal/mol]
Settings | 298.15 K | 313.15 K
x1 = 0.0501 | 0.0285 | 0.034
x1 = 0.1002 | 0.0564 | –
x1 = 0.1003 | – | 0.0667
x1 = 0.1497 | 0.0823 | –
x1 = 0.1498 | – | 0.0972
x1 = 0.2003 | 0.107 | –
x1 = 0.2004 | – | 0.126
x1 = 0.2502 | – | 0.152
x1 = 0.2503 | 0.129 | –
x1 = 0.3004 | 0.149 | 0.175
x1 = 0.3497 | – | 0.196
x1 = 0.3498 | 0.167 | –
x1 = 0.4004 | – | 0.214
x1 = 0.4006 | 0.182 | –
x1 = 0.4505 | – | 0.228
x1 = 0.4507 | 0.195 | –
x1 = 0.4995 | – | 0.238
x1 = 0.4997 | 0.204 | –
x1 = 0.5503 | – | 0.246
x1 = 0.5506 | 0.21 | –
x1 = 0.5994 | – | 0.25
x1 = 0.5998 | 0.213 | –
x1 = 0.6502 | – | 0.249
x1 = 0.6505 | 0.213 | –
x1 = 0.6997 | – | 0.243
x1 = 0.7 | 0.209 | –
x1 = 0.7506 | – | 0.231
x1 = 0.7509 | 0.199 | –
x1 = 0.7998 | – | 0.214
x1 = 0.8 | 0.185 | –
x1 = 0.8499 | – | 0.186
x1 = 0.8501 | 0.162 | –
x1 = 0.8993 | – | 0.147
x1 = 0.8994 | 0.13 | –
x1 = 0.9493 | 0.0789 | –
x1 = 0.9494 | – | 0.087
